Experimental data from article PMC3445454, “Broad and Cross-Clade CD4^+ T-Cell Responses Elicited by a DNA Vaccine Encoding Highly Conserved and Promiscuous HIV-1 M-Group Consensus Peptides” (PLoS ONE, 2012).

By UniProt entry, the sequences of proteins in these tests, tags left out. Residues count along the entry.
UniProt P01920, 33-261: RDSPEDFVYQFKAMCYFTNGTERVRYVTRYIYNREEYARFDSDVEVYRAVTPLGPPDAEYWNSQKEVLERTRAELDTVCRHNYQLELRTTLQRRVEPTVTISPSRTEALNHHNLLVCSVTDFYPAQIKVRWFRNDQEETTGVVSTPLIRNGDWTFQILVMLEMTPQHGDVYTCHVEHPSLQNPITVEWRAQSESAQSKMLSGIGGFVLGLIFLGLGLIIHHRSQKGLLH
UniProt P01903, 26-254: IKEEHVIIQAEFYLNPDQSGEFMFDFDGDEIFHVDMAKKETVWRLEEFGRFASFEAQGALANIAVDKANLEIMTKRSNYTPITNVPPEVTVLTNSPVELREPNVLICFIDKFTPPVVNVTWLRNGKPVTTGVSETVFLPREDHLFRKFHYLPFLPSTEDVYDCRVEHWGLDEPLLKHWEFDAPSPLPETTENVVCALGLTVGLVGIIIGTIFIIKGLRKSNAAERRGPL
UniProt P01911, 30-266: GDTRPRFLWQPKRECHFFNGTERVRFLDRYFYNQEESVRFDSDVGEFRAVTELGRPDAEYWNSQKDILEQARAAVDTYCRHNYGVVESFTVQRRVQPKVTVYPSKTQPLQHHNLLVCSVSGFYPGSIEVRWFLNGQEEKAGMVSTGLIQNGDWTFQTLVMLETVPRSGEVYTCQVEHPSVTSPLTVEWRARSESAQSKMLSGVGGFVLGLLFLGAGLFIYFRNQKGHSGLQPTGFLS
UniProt Q30154, 30-266: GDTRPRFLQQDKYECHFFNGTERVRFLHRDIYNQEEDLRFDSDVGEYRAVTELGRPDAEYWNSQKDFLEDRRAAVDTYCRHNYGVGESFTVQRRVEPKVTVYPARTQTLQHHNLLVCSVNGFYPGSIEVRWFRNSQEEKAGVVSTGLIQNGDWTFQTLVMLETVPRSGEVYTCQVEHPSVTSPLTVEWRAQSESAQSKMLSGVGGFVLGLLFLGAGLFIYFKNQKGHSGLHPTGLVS
UniProt P79483, 30-266: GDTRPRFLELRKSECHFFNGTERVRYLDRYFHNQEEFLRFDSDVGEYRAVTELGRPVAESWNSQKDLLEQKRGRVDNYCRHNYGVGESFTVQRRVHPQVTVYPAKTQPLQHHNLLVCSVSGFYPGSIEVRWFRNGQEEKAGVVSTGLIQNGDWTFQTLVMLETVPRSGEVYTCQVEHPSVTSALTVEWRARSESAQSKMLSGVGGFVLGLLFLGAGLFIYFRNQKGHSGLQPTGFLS

Legend:
Experiment in all cases: biochemical
[1] = target: HLA-DQ DQA1*05:01/DQB1*03:01 (Homo sapiens, UniProt P01909+P01920)
[2] = target: T1, HLA-DP DPA1*01:03/DPB1*04:01 (Homo sapiens, UniProt P04440+P20036); assay type: binding
T1 sequence (P20036 29-260): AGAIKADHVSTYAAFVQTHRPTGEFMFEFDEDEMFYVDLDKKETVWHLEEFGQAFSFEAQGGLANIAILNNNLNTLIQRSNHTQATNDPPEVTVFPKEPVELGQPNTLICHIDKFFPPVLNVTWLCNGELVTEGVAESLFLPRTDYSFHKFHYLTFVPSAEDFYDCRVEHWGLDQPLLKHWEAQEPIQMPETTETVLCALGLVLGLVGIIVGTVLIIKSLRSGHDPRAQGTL
T1 sequence (P04440 30-258): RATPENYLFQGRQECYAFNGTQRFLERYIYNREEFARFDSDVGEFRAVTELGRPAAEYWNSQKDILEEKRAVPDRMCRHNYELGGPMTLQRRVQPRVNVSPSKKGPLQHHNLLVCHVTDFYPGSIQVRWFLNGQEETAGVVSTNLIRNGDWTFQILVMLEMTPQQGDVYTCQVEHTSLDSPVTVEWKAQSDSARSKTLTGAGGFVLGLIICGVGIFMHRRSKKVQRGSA

[3] = target: HLA-DR DRB1*15:01 (Homo sapiens, UniProt P01903+P01911); assay type: binding
[4] = target: HLA-DR DRB5*01:01 (Homo sapiens, UniProt P01903+Q30154); assay type: binding
[5] = target: HLA-DR DRB3*01:01 (Homo sapiens, UniProt P01903+P79483); assay type: binding

Compound	IC50 [1] [µM]	IC50 [2] [µM]	IC50 [3] [µM]	IC50 ([4]; read-out: Binding capacity/IC50 (nM) DRB5*01:01) [nM]	IC50 [4] [nM]	IC50 [5] [µM]
CSCC[C@H](NC(=O)[C@@H]1CCCN1C(=O)[C@H](CCCNC(=N)N)NC(=O)[C@H](CC(C)C)NC(=O)[C@@H]1CCCN1C(=O)[C@@H](NC(=O)[C@H](CCC(N)=O)NC(=O)[C@@H]1CCCN1C(=O)[C@H](CCCNC(=N)N)NC(=O)[C@@H](NC(=O)[C@@H]1CCCN1C(=O)[C@H](Cc1ccccc1)NC(=O)CN)C(C)C)C(C)C)C(=O)N[C@H](C(=O)N[C@@H](Cc1ccc(O)cc1)C(=O)N[C@@H](CCCCN)C(=O)NCC(=O)N[C@@H](C)C(=O)N[C@@H](Cc1ccccc1)C(=O)N[C@@H](CC(=O)O)C(=O)N[C@@H](CC(C)C)C(N)=O)[C@@H](C)O [nef(67-87)]	4.34	1.51	0.303	–	–	–
CC[C@H](C)[C@H](NC(=O)[C@H](C)NC(=O)[C@H](CCC(N)=O)NC(=O)[C@H](Cc1c[nH]cn1)NC(=O)[C@@H](NC(=O)[C@H](CCSC)NC(=O)[C@H](CCC(N)=O)NC(=O)CNC(=O)[C@H](CCC(N)=O)NC(=O)[C@H](CC(C)C)NC(=O)[C@H](CC(N)=O)NC(=O)[C@H](CCC(N)=O)NC(=O)[C@@H](NC(=O)[C@@H](NC(=O)[C@@H]1CCCN1C(=O)[C@H](Cc1ccc(O)cc1)NC(=O)[C@@H](N)CC(N)=O)[C@@H](C)CC)C(C)C)C(C)C)C(=O)N[C@@H](CO)C(=O)N1CCC[C@H]1C(=O)N[C@@H](CCCNC(=N)N)C(N)=O [p17(131-132)/p24(1-18)]	3.35	–	–	547	–	–
CC[C@H](C)[C@H](NC(=O)[C@@H](NC(=O)[C@H](CCC(=O)O)NC(=O)[C@@H]1CCCN1C(=O)[C@@H](N)CO)C(C)C)C(=O)N1CCC[C@H]1C(=O)N[C@@H](CCSC)C(=O)N[C@@H](Cc1ccccc1)C(=O)N[C@@H](CO)C(=O)N[C@@H](C)C(=O)N[C@@H](CC(C)C)C(=O)N[C@@H](CO)C(=O)N[C@@H](CCC(=O)O)C(=O)NCC(=O)N[C@@H](C)C(=O)N[C@H](C(N)=O)[C@@H](C)O [p24(33-48)]	0.863	4.15	–	–	112	8.78
CC[C@H](C)[C@H](NC(=O)[C@H](CCC(=O)O)NC(=O)CN)C(=O)N[C@@H](Cc1ccc(O)cc1)C(=O)N[C@@H](CCCCN)C(=O)N[C@@H](CCCNC(=N)N)C(=O)N[C@@H](Cc1c[nH]c2ccccc12)C(=O)N[C@H](C(=O)N[C@H](C(=O)N[C@@H](CC(C)C)C(=O)NCC(=O)N[C@@H](CC(C)C)C(=O)N[C@@H](CC(N)=O)C(=O)N[C@@H](CCCCN)C(=O)N[C@H](C(=O)N[C@H](C(=O)N[C@@H](CCCNC(=N)N)C(=O)N[C@@H](CCSC)C(=O)N[C@@H](Cc1ccc(O)cc1)C(N)=O)C(C)C)[C@@H](C)CC)[C@@H](C)CC)[C@@H](C)CC [p24(127-145)]	6.23	3.15	0.017	–	–	0.333
CC(C)C[C@H](NC(=O)CNC(=O)[C@H](Cc1c[nH]cn1)NC(=O)[C@H](CC(C)C)NC(=O)[C@H](Cc1c[nH]c2ccccc12)NC(=O)[C@@H]1CCCN1C(=O)[C@H](CCCNC(=N)N)NC(=O)[C@@H]1CCCN1C(=O)[C@H](Cc1ccccc1)NC(=O)[C@H](Cc1c[nH]cn1)NC(=O)[C@H](CCCNC(=N)N)NC(=O)[C@@H](NC(=O)[C@H](C)NC(=O)[C@@H](N)CCC(=O)O)C(C)C)C(N)=O [vpr(29-42)]	> 30	–	–	–	–	–
CC[C@H](C)[C@H](NC(=O)[C@H](C)NC(=O)[C@@H](N)CCC(=O)O)C(=O)N[C@H](C(=O)N[C@@H](CCCNC(=N)N)C(=O)N[C@H](C(=O)N[C@@H](CC(C)C)C(=O)N[C@@H](CCC(N)=O)C(=O)N[C@@H](CCC(N)=O)C(=O)N[C@@H](CC(C)C)C(=O)N[C@@H](CC(C)C)C(=O)N[C@@H](Cc1ccccc1)C(=O)N[C@H](C(=O)N[C@@H](Cc1c[nH]cn1)C(=O)N[C@@H](Cc1ccccc1)C(=O)N[C@@H](CCCNC(=N)N)C(=O)N[C@H](C(=O)NCC(=O)N[C@@H](CS)C(=O)N[C@@H](CCC(N)=O)C(=O)N[C@@H](Cc1c[nH]cn1)C(=O)N[C@@H](CO)C(=O)N[C@@H](CCCNC(=N)N)C(N)=O)[C@@H](C)CC)[C@@H](C)CC)[C@@H](C)CC)[C@@H](C)CC [vpr(58-80)]	4.39	–	–	–	–	–
CC[C@H](C)[C@H](N)C(=O)N[C@H](C(=O)N[C@@H](C)C(=O)N[C@@H](CC(C)C)C(=O)N[C@H](C(=O)N[C@H](C(=O)N[C@@H](C)C(=O)N[C@H](C(=O)N[C@H](C(=O)N[C@H](C(=O)N[C@@H](Cc1c[nH]c2ccccc12)C(=O)N[C@H](C(=O)N[C@H](C(=O)N[C@H](C(N)=O)C(C)C)[C@@H](C)CC)[C@@H](C)O)C(C)C)C(C)C)[C@@H](C)CC)[C@@H](C)CC)[C@@H](C)CC)C(C)C [vpu(13-26)]	> 30	–	–	–	–	–

Read-outs that look alike come from different tables or passages of the source.
